Molecules are shown by their SMILES.

This test is described as follows: Selectivity ratio of Ki for sigma-2 receptor in rat liver homogenates to Ki for sigma-1 receptor in guinea pig brain homogenates. The test is classed as tissue-based.

On to `COc1ccc(CN2CCN(Cc3ccccc3)CC2)cc1`, for which the Ratio Ki was found to be 342.

(Values after ChEMBL document CHEMBL3102830, “Involvement of apoptosis and autophagy in the death of RPMI 8226 multiple myeloma cells by two enantiomeric sigma receptor ligands” (Bioorg Med Chem, 2014).)
